Measured values published in US20220062240A1, “METHODS OF TREATING CANCER USING A CLK INHIBITOR” (BioSplice Therapeutics, Inc., priority 2018, published 2022).
Like-named read-outs stand apart in the source and are kept apart here.

Chains of the proteins cited; added tags and fusions are not shown. Lines headed by an entry give the natural chain unless they say otherwise; changes in a name come on top.
UniProt Q92630: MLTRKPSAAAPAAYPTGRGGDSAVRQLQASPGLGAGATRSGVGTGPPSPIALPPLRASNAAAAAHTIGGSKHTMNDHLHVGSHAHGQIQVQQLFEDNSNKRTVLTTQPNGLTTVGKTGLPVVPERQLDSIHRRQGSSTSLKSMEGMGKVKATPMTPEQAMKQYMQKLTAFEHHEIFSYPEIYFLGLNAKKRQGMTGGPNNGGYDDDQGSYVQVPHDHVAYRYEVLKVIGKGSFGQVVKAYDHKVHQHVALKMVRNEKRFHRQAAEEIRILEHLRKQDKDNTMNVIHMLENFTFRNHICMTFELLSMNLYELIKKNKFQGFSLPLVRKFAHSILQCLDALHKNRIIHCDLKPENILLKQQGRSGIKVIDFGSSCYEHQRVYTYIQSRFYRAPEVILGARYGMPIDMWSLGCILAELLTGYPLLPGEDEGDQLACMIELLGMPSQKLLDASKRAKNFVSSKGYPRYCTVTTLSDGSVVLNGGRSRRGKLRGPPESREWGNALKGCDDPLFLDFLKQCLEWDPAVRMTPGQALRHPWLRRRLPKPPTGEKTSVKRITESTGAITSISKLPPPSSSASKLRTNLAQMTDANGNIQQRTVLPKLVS
UniProt O43781: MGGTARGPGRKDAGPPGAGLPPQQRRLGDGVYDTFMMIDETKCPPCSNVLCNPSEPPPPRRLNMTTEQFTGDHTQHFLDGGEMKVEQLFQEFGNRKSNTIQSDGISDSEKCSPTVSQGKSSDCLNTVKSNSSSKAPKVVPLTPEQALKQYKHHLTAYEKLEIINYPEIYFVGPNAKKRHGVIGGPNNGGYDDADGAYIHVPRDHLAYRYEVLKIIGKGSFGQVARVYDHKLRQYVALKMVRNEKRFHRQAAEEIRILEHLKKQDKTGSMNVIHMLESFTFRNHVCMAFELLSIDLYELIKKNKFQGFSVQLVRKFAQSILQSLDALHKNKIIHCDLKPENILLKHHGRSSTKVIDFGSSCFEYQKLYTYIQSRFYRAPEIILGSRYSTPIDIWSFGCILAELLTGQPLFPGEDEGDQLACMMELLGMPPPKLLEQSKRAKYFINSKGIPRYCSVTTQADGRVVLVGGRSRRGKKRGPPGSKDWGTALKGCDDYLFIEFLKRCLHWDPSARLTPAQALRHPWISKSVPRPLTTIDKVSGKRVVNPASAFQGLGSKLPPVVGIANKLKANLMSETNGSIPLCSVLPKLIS
UniProt Q9NR20: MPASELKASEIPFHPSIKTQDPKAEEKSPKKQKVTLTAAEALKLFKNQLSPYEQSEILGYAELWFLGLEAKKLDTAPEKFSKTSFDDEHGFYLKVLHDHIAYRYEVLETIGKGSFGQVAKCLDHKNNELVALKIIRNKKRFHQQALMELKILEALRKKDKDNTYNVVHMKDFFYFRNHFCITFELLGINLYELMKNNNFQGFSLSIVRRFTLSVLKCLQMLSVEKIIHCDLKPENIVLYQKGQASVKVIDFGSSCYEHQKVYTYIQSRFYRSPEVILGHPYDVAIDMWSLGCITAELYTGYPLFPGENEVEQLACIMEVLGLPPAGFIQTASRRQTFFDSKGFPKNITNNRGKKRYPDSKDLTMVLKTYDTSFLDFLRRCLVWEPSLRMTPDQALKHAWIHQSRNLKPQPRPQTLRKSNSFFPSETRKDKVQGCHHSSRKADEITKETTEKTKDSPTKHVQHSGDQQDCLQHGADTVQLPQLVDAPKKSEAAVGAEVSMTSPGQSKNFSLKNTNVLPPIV

Legend:
all 50 cell lines = assay: CellTiter-Glo Viability Assay, average across all cell lines; assay type: cell-based; conditions: Homo sapiens, read-out: average EC50 for inhibition of cancer cell proliferation
SNU-16 = assay: cells; conditions: Homo sapiens, SNU-16, 96 h
DYRK2 = DYRK2 (Homo sapiens, UniProt Q92630); assay: biochemical
DYRK3 = DYRK3 (Homo sapiens, UniProt O43781); assay: biochemical
DYRK4 = DYRK4 (Homo sapiens, UniProt Q9NR20); assay: biochemical
[1] = test system: SW480 colorectal cancer cells; assay: Gene expression qRT-PCR in SW480 cells; assay type: cell-based; conditions: Homo sapiens, SW480, 24 h

`CNC(=O)c1ccc(-c2c[nH]c3nc(Nc4ccc(C(=O)NC)cc4OC)nc(OC4CCCC4)c23)cc1` [Compound 10] showed an EC50 (all 50 cell lines) of 332 nM.

With `CN1CCN(c2cc(C(=O)Nc3cc4cc(-c5cnn(C)c5)ccc4cn3)ccn2)CC1` [Compound 12] the EC50 (all 50 cell lines) was 257 nM, the EC50 (SNU-16) was 109 nM and the IC50 (DYRK2) was 3 nM. For the same compound, the IC50 (DYRK3) was 8 nM and the IC50 (DYRK4) was 13 nM.

Compound `Cc1ccc([N+](=O)[O-])cc1S(=O)(=O)N(C)/N=C/c1cnc2ccc(Br)cn12` [Compound 26] has a fold induction at 3 µM ([1]; read-out: gene expression fold change CLK1) of 0.02, a fold induction at 3 µM ([1]; read-out: gene expression fold change CLK2) of 0.05 and a fold induction at 3 µM ([1]; read-out: gene expression fold change CLK3) of 0.02. For the same compound, the fold induction at 3 µM ([1]; read-out: gene expression fold change DVL2) was 0.06, the fold induction at 3 µM ([1]; read-out: gene expression fold change LRP5) was 0.15 and the fold induction at 3 µM ([1]; read-out: gene expression fold change SRSF1) was 0.16. It also gave a fold induction at 3 µM ([1]; read-out: gene expression fold change SRSF3) of 0.04, a fold induction at 3 µM ([1]; read-out: gene expression fold change SRSF4) of 0.02 and a fold induction at 3 µM ([1]; read-out: gene expression fold change SRSF5) of 0.09. For the same compound, the fold induction at 3 µM ([1]; read-out: gene expression fold change TCF7) was 0.37 and the fold induction at 3 µM ([1]; read-out: gene expression fold change TCF7L2) was 0.09.
